From patent US20210198269A1, “INHIBITORS OF GLUCOSE TRANSPORTERS (GLUTs)” (LEAD DISCOVERY CENTER GMBH, priority 2018, published 2021)

Amino acid sequences for entries named in this document (tags omitted).
UniProt P11166, whole entry: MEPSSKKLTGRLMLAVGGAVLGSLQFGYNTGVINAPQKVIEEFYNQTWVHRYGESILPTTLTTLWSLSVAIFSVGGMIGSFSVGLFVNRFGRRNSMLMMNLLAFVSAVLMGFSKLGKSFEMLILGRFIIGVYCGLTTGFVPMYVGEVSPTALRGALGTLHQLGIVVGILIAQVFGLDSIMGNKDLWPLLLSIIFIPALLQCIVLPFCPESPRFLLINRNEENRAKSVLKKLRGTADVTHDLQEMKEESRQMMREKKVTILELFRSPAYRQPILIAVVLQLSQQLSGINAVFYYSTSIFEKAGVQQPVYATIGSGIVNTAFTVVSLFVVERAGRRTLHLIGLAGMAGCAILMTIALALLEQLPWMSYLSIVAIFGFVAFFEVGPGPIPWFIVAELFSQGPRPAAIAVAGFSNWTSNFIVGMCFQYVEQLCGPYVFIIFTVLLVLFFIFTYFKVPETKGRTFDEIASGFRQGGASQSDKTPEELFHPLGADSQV
UniProt P11168, whole entry: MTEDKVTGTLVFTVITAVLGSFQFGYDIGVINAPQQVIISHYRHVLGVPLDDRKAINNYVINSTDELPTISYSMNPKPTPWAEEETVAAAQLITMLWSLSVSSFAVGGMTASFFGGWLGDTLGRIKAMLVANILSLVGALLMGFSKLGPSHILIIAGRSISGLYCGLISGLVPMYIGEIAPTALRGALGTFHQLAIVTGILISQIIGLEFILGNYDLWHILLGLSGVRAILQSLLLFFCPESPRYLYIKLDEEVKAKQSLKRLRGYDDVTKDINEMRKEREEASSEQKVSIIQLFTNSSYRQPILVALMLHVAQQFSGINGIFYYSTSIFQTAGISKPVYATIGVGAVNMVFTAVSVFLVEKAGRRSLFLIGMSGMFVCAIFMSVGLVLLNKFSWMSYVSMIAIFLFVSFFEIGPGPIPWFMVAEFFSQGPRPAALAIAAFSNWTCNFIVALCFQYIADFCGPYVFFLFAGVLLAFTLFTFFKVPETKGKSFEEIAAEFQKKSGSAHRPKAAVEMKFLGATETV
UniProt P11169, whole entry: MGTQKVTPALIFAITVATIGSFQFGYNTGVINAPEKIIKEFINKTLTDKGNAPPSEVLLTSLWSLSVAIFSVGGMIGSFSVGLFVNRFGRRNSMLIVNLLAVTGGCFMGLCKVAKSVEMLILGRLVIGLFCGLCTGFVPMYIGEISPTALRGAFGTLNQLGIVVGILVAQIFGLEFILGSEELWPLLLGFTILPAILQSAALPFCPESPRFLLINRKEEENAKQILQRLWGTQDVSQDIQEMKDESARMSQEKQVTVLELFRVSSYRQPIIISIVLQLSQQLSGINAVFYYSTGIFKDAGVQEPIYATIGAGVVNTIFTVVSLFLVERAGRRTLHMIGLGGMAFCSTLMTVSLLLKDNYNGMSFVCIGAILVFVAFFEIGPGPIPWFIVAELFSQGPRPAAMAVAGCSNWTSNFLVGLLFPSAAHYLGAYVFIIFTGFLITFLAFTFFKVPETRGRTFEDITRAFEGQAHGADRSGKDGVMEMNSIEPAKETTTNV
UniProt P14672, whole entry: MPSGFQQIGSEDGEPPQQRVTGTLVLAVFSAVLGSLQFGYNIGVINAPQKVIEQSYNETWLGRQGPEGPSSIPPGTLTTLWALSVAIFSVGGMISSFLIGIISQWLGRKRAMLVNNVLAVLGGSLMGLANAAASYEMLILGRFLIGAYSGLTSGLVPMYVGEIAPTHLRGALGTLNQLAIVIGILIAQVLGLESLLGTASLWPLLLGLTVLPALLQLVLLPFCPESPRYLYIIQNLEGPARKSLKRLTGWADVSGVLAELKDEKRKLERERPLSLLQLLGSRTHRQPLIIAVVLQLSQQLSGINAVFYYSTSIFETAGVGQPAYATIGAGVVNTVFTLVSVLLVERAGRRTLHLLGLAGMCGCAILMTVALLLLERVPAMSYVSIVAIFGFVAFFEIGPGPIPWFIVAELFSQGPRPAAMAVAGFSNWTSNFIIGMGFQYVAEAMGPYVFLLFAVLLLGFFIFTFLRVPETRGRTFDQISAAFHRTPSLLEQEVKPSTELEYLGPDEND

Legend:
GLUT1 = GLUT1 (Homo sapiens, UniProt P11166); test: GLUT1 transporter activity assay (2-DG uptake) in DLD1 cells; conditions: read-out: GLUT1 inhibitory activity (IC50); DLD1 cell line
Description: (§1) GLUT 1, 2, 3 and 4 Transporter Activity Assays
(§2) Assays were based on the specificity assays reported by Kapoor et al., Proceedings of the National Academy of Sciences 2016, 113 (17) 4711-4716. For GLUT1, GLUT2, GLUT3 and GLUT4 specificity testing DLD1, CHO-hGLUT2, DLD-1-GLUT1−/− and CHO-hGLUT4 cell lines were used.
(§3) Assay protocols for 2-deoxy-Glucose (2-DG) Uptake Assay with DLD1 or DLD1-Glut1(−/−) cells or 7,000 CHOK1-SLC2A4 cells lines:
(§4) 14,000 DLD1 or DLD1-Glut1(−/−) cells or 7,000 CHOK1-SLC2A4 cells were seeded in black, clear bottom 384-well plates in glucose- and phenolred-free RPMI1640 medium supplemented with 1% FCS and 2 mM L-glutamine and allowed to attach overnight. Next day, cells were washed and incubated with compounds or DMSO and 1 mM 2-DG in glucose- and phenolred-free RPMI1640 medium for 30 min. Cells were then washed and lysed in 0.06 M HCl and 1% CHAPS for 15 min at 65° C. The amount of 2-DG in the lysate was determined by means of enzyme-coupled assay. For this 16 U/mL glucose-6-phosphate dehydrogenase, 0.2 U/mL diaphorase, 0.1 mM NADP^+ and 10 μM resazurin were added to the lysates. Resorufin fluorescence was determined as a measure of 2-DG uptake at ex/em 535/590 nm with a Victor Multilabel plate reader (Perkin Elmer). Blank values were subtracted from all readings and values were normalized to the DMSO control.

GLUT2 = GLUT2 (Homo sapiens, UniProt P11168); test: GLUT2 transporter activity assay in CHO-hGLUT2 cells (indirect, intracellular ATP levels); conditions: read-out: GLUT2 inhibitory activity (IC50); CHO-hGLUT2 cell line
Description: as §1, §2
Example 8-3: Indirect Measurement of GLUT2 (SLC2A2) Activity by Quantification of Intracellular ATP Levels
A combination of small-molecule inhibitors of mitochondrial electron transport chain and glucose catabolism synergistically suppress ATP production and impair cellular viability (Ulanovskaya et al., 2008, 2011; Liu, et al. 2001). We therefore used CHOK1 cells overexpressing SLC2A2 (CHOK1-SLC2A2) in combination with an oxidative phosphorylation inhibitor (Rotenon) to identify GLUT2 inhibitors. CHOK1-SLC2A2 cells were purchased from creative biogene (catNo: CSC-SC014484) and maintained in RPMI1640 supplemented with 10% FBS and 2 mM L-Glutamine. […] The CellTiter-Glo® Luminescence Viability Assay from Promega was used to measure ATP levels. Luminescence was measured with a Victor Multilabel plate reader (Perkin Elmer). Blank values were subtracted from all readings and values were normalized to the DMSO control.

GLUT3 = GLUT3 (Homo sapiens, UniProt P11169); test: GLUT3 transporter activity assay (2-DG uptake) in DLD-1-GLUT1-/- cells; conditions: read-out: GLUT3 inhibitory activity (IC50); DLD-1-GLUT1-/- cell line
Description: as §1, §2, §3, §4

GLUT4 = GLUT4 (Homo sapiens, UniProt P14672); test: GLUT4 transporter activity assay (2-DG uptake) in CHO-hGLUT4 cells; assay type: cell-based; conditions: read-out: GLUT4 inhibitory activity (IC50); CHO-hGLUT4 cell line
Description: CHOK1-SLC2A4 cells were generated by transfection of CHOK1 cells with pCMV6-Entry-GLUT4 (Origene #SC125240) using Lipofectamin2000 according to the supplier's instructions. Briefly, 1.5E5 cells/well CHOK1 cells were seeded in 6-well cell culture plates. After overnight incubation, DNA-lipid complexes (2 μg plasmid DNA, DNA:lipid ratio 1:10) were prepared in OptiMEM and then added to the cells. After 5 days incubation, 800 μg G418 was added to the culture medium to generate a stable polyclone. For monoclone selection, single cells were re-plated in 96-well plates, expanded and selected by transgene overexpression and functional performance.
as §1, §2, §3, §4

Row | Structure (SMILES) | IC50 (GLUT1) | IC50 (GLUT2) | IC50 (GLUT3) | IC50 (GLUT4)
1 | CC12CC(NC(=O)N1)c1cccc(OCc3ccccc3)c1O2 (stereo not shown) | > 25 µM | > 25 µM | > 25 µM | > 25 µM
2 | Cc1ccc(CCNC(=O)c2cccc(N3C(=O)NC4CC3(C)Oc3c(O)cccc34)c2)cc1 (stereo not shown) | 10 to 25 µM | – | 10 to 25 µM | > 25 µM
3 | CC12CC(NC(=O)N1c1ccccc1)c1cccc(OCc3ccccc3)c1O2 (stereo not shown) | 10 to 25 µM | – | 4 to 10 µM | > 25 µM
